Drawing on ChEMBL document CHEMBL1139291, “Syntheses and opioid receptor binding properties of carboxamido-substituted opioids” (Bioorg Med Chem Lett, 2009), this text covers IC50 and Ki for one compound.

Protein sequences, listed by entry. Tags and fused reporters are not part of them.
UniProt P35372, whole entry: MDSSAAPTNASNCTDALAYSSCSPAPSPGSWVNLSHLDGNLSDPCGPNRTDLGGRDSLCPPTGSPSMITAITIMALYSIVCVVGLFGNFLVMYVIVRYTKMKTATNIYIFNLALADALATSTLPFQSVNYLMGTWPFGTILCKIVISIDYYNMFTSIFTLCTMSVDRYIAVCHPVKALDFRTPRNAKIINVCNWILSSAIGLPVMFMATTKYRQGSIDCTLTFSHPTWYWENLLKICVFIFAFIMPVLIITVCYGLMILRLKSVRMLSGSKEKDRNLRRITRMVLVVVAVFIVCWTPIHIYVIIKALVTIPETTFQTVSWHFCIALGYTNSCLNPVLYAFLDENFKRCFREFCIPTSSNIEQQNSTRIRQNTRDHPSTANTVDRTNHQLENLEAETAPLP
UniProt P41145, whole entry: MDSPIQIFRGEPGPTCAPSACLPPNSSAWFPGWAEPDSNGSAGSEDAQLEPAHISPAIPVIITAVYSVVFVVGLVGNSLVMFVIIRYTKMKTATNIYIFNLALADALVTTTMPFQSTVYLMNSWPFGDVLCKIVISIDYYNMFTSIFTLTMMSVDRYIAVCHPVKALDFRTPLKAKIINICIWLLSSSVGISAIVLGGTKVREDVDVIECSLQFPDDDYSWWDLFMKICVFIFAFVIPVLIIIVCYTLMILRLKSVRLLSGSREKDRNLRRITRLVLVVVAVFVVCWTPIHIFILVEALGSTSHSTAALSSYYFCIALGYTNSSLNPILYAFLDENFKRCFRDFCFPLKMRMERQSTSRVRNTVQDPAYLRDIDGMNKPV
UniProt P41143, whole entry: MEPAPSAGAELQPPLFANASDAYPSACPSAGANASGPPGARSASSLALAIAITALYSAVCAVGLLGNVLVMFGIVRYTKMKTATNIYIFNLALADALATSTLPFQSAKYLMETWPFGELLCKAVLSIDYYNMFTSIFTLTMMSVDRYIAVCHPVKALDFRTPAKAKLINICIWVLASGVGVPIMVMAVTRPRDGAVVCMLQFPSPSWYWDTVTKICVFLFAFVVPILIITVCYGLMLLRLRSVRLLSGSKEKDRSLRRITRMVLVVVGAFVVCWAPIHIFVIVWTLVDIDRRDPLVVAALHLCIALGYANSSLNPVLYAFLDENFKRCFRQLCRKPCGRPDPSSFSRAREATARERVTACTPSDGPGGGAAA

For one assay, the target named is Mu-type opioid receptor (Homo sapiens, UniProt P35372). Conditions: cho.
In assay [1] the target is T1, Kappa-type opioid receptor (Homo sapiens, UniProt P41145). Conditions: cho.
Assay [2] concerns the target T1, Kappa-type opioid receptor. As to conditions: cho. The source holds these as a separate data set.
Assay [3] concerns the target Delta-type opioid receptor (Homo sapiens, UniProt P41143). The assay can be described thus: Displacement of [3H]Naltrindole form human delta opioid receptor expressed in CHO cells.

In general, IC50 refers to the concentration that inhibits the measured activity by half. Read a high IC50 as a need for much substance. For orientation: Ki means a measure of affinity in units of concentration, obtained from inhibition or displacement. With `CO[C@@]12CC[C@@]3(C[C@@H]1[C@@](C)(O)C(C)(C)C)[C@H]1Cc4ccc(C(N)=O)c5c4[C@@]3(CCN1CC1CC1)[C@H]2O5`, the results for the IC50 (against Mu-type opioid receptor; in assay [1]) were 4 nM and 140 nM, respectively. Further, the inhibition constant Ki in assay [2] amounted to 2.1 nM; in assay [3], 54 nM.
